Data: patent US20260265280A1, “Prevention/Treatment of Ischemic Reperfusion Injury” (Rev Therapeutics, priority 2023, published 2026)

Test: Thermodynamic solubility assay (shake flask, HPLC-UV) in PBS
Format: physicochemical
Settings: PBS pH 7.4, shaken 24 hr at room temperature (25±2° C.)
Protocol: Solubility Study: The thermodynamic solubility assay employed was the shake flask method followed by HPLC analysis. The method prepared a saturated solution of the compound, followed by an assay of the solution using HPLC and UV detection. […] About 18 mg compound powder was weighed and placed in a 2 mL glass vial, then PBS buffer was introduced into the vial to obtain a 30-60 mg/mL target concentration. This solution was vortexed for 2 minutes. The solutions were incubated and shook on an orbital shaker for 24 hr at room temperature (25±2° C.). About 500 μL solubility solution was transferred into a new MultiScreen filter plate (Membrane of polycarbonate), filtered by millipore vacuum manifold, and collected in the filtrate as the TS solution. The filtrate was diluted with PBS buffer by a factor of 20 fold to make it diluent. Three UV standard solutions (20, 200, 2000 μg/mL) were injected into HPLC from low to high concentration, followed by testing of the diluent. Testing samples were injected in duplicate. The filtrate was analyzed by HPLC equipped with UV, and the solubility was calculated based on acquired peak areas and dilution factors with a standard external method.

[4-[[9-[(3S)-Tetrahydro furan-3-yl]-8-(2,4,6-trifluoroanilino)purin-2-yl]amino]cyclohexyl] disodium phosphate [Compound Q7]
Thermodynamic Solubility in PBS: 29.99 mg/mL
